Screening results from PubChem.
B2AR arrestin: beta2AR (human) beta-arrestin recruitment activity | 0.02% of 330,000 active | P07550 | beta-arrestin recruitment to beta2AR, cell-based reporter | AID 492947 | Potency, µM (doses to about 46.1 µM), without a hit: at the highest dose activation, hits mostly activators;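 note: potency is the fitted concentration of half-maximal effect; 0% = DMSO controls and full agonism = EC100 isoproterenol or metaproterenol; nearly all actives have a fitted effect of over 65% in size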
FBPA coupling cs: coupling enzyme interference in Giardia aldolase counter-screen; activity change, negative = inhibition, % at 58.2 µM, hits read low; coupling enzyme system counterscreen, AmpLite Red fluorescence; 0.67% of 290,000 active; in the data active = activity change below about -30%; note: % is set by controls: 0 for no effect and ±100 for the full control effect
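Fluorescence at 525 nm excitation and 598 nm emission measured inhibition of the coupled detection system without aldolase. Compounds (at 57.5 uM final) were preincubated 10 min at room temperature with coupling enzyme reagent before a 20 min substrate/AmpLite Red step.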
Giardia killer: Giardia lamblia killing. activity change, % at 7.66 µM, hits read low. AID 540267. 0.15% of 340,000 active. Giardia lamblia trophozoite viability; in the data active = activity change below about -80%; inconclusive = between about -30% and that limit;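 note: parasites exposed to compound for two days anaerobically before the ATP read; % is set by controls: 0 for no effect and ±100 for the full control effect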
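Trophozoite viability was measured as ATP-dependent luminescence, read 15-30 min after reagent addition. Before that, parasites at 100 cells/well were exposed to compounds for 48 h, anaerobically, at 37 deg C.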
uPA generation: inhibitors of cell surface uPA generation; cell surface uPA generation assay, qHTS; Potency, µM (highest dose often 38.3 µM), inactives show top-dose activity change, negative = inhibition, most hits filed as inhibitors; 0.31% of 330,000 active; active = well fitted inhibition curve with a large enough effect; inconclusive = small, poorly fitted or top-dose-only effect; inactive = no such curve, though single readings can be large or run the other way; tested in mouse RAW 264.7 cells; note: potency is the fitted concentration of half-maximal effect; % is set by controls: 0 for no effect and ±100 for the full control effect; nearly all actives have a fitted effect of over 55% in size
GALK inhibitor: galactokinase (human) inhibition; Purified GALK, Kinase-Glo residual ATP luminescence; Potency, µM (doses to about 57.5 µM), for the others: at the highest dose activity change, negative = inhibition, usual class: inhibitors; 0.007% of 270,000 active; note: potency is the fitted concentration of half-maximal effect; % is set by controls: 0 for no effect and ±100 for the full control effect
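Quantitative HTS: GALK 5 nM, ATP 35 uM, galactose 100 uM, 1 h room temperature, then luciferase-based ATP detection.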
miR-21 reporter: raises the signal of a miR-21 reporter | HeLa miR-21 FLuc reporter, luciferase, 48 h | Potency, µM (doses to about 38.3 µM), for the others: at the highest dose reporter change, positive = more light | 340,000 tested, under 10 active | AID 2288; active = well fitted rising curve with a large enough effect; inconclusive = small, poorly fitted or top-dose-only effect; inactive = no such curve, though single readings can be large or run the other way;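 also: % of control where 0% means no effect; miR-21 action dims this reporter so a rising signal means less miR-21 action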
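HeLa cells endogenously expressing miR-21, stably carrying CMV-driven firefly luciferase with a downstream miR-21 binding site, 2000 cells/well. Titrations up to approximately 40 uM, 48 hours; luciferase luminescence read.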
Numbers without * were called inactive. Hits are enriched below; roughly 0.92% of the tested compounds scored in any of these assays. Unless noted, calls come from the whole dose curve; as a rule, active = well fitted curve in the direction sought with a large enough effect; inconclusive = small, poorly fitted or top-dose-only effect, or another doubt; inactive = no such curve, though single readings can be large; an effect the other way counts as inactive or inconclusive.

COc1ccccc1OCCCn1cc(C#N)c2ccccc21 was read as B2AR arrestin -1%, FBPA coupling cs -32*, Giardia killer 7, uPA generation 12%, GALK inhibitor -3% and miR-21 reporter -26%.
`CC(C)(C)c1ccc(OCCn2c(CCNC(=O)C3CCCCC3)nc3ccccc32)cc1` gave Giardia killer 4.
CCOc1ccc(NC(=O)c2ccccn2)cc1 was read as B2AR arrestin -2%, FBPA coupling cs 0, Giardia killer -93*, uPA generation 1.6µM*, GALK inhibitor 8% and miR-21 reporter inconclusive.
`COc1ccc(C(=O)NNC(=O)c2ccccn2)cc1` gave B2AR arrestin -1%, FBPA coupling cs -7, Giardia killer -14, uPA generation 3.2µM*, GALK inhibitor 22% and miR-21 reporter inconclusive.
`COc1cc(OC)cc(C(=O)NNC(=O)c2ccccn2)c1` gave B2AR arrestin 0%, FBPA coupling cs -2, Giardia killer 13, uPA generation 3%, GALK inhibitor -2% and miR-21 reporter -8%.
Screening NCCN(Cc1ccc(Cl)c(Cl)c1)c1ccc(Br)cn1 returned Giardia killer -16.
Screening COc1cc(NC(=O)c2ccc(-n3cnc4cccnc43)cc2)cc(OC)c1 returned miR-21 reporter 6%.
O=C(NCc1ccc2c(c1)CCN2C(=O)c1ccccc1)c1cc2ccccc2[nH]1 was read as miR-21 reporter -11%.
`CCOc1ccc(NC(=O)c2nn(C)c3c2CS(=O)(=O)c2ccccc2-3)cc1` gave miR-21 reporter -1%.
`CCCC(=O)Nc1cc(OC)c(NC(=O)NC2CCCCC2)cc1OC` gave B2AR arrestin 0%, FBPA coupling cs -45*, Giardia killer 1, uPA generation 0%, GALK inhibitor 6% and miR-21 reporter -17%.
For COc1ccc2c(c1)CC(NC(=O)Nc1ccc(Br)c(C)c1)CO2 (stereo unspecified) the results were miR-21 reporter 1%.
`O=C(Nc1ccc2c(c1)OCO2)N1CCCc2ccccc21` gave B2AR arrestin 0%, FBPA coupling cs 0, Giardia killer -7, uPA generation -2%, GALK inhibitor 4% and miR-21 reporter -62%.
Screening Cc1ccc2c(c1)CCCN2C(=O)Nc1ccc2c(c1)OCO2 returned B2AR arrestin 0%, FBPA coupling cs -40*, Giardia killer 5, uPA generation -1%, GALK inhibitor -1% and miR-21 reporter -42%.
For CCOc1ccc(Br)cc1CC(=O)O the results were Giardia killer 1 and uPA generation 2%.
Screening CCCOc1ccc(Br)cc1CSC(=N)N returned B2AR arrestin -1%, FBPA coupling cs -7, Giardia killer -20, uPA generation 5.6µM*, GALK inhibitor 1% and miR-21 reporter inconclusive.

Random excerpt: 2 records from the list
Screening CCCOc1ccc(Br)cc1CSC(=N)N returned B2AR arrestin -1%, FBPA coupling cs -7, Giardia killer -20, uPA generation 5.6µM*, GALK inhibitor 1% and miR-21 reporter inconclusive.
`O=C(Nc1ccc2c(c1)OCO2)N1CCCc2ccccc21` gave B2AR arrestin 0%, FBPA coupling cs 0, Giardia killer -7, uPA generation -2%, GALK inhibitor 4% and miR-21 reporter -62%.

More entries:
`Oc1ccc(C=Nc2ccc3ncccc3c2)c(O)c1` gave B2AR arrestin 11%, FBPA coupling cs -52*, GALK inhibitor 2% and miR-21 reporter -10%.
`Oc1ccc(C=Nc2cccc3ncccc23)c(O)c1` gave B2AR arrestin 0%, FBPA coupling cs -37*, Giardia killer -2, uPA generation -6%, GALK inhibitor 3% and miR-21 reporter 4%.
Screening CCOc1ccc(C=Nc2cccc3ncccc23)cc1 returned B2AR arrestin 0%, FBPA coupling cs -42*, Giardia killer 9, uPA generation inconclusive, GALK inhibitor 0% and miR-21 reporter -1%.
COc1ccc(C=Nc2cccnc2N)cc1 was read as B2AR arrestin 0%, FBPA coupling cs 0, Giardia killer 7, uPA generation -9%, GALK inhibitor 4% and miR-21 reporter -25%.
C#CCOc1c(Br)cc(C2C(C(=O)OC)=C(C)NC3=C2C(=O)c2ccccc23)cc1OCC (stereo unspecified) was read as miR-21 reporter 11%.
Screening CC1=C(C(=O)OC2CCCCCC2)C(c2cccc(Cl)c2)CC(=O)N1 (stereo unspecified) returned miR-21 reporter 19%.
For Oc1ccc2c(c1)C1CCCC1(N1CCOCC1)O2 (stereo unspecified) the results were B2AR arrestin -1%, FBPA coupling cs -37*, Giardia killer 7, uPA generation 1%, GALK inhibitor 3% and miR-21 reporter -8%.
O=[N+]([O-])c1nn(-c2ccccc2)[n+]([O-])c1N1CCN(c2ccccc2F)CC1 was read as B2AR arrestin 0%, FBPA coupling cs 1, Giardia killer -89*, uPA generation 3%, GALK inhibitor -2% and miR-21 reporter 2%.
For O=[N+]([O-])c1nn(-c2ccccc2)[n+]([O-])c1N1CCN(c2ccccc2)CC1 the results were B2AR arrestin 0%, FBPA coupling cs 3, Giardia killer -81*, uPA generation 5%, GALK inhibitor 2% and miR-21 reporter 0%.
Screening O=[N+]([O-])c1cccnc1N1CCN(c2ccccc2F)CC1 returned B2AR arrestin 0%, FBPA coupling cs -3, Giardia killer -7, uPA generation -8%, GALK inhibitor 1% and miR-21 reporter -27%.
`Cc1cccc(-n2nc([N+](=O)[O-])c(N3CCN(C(=O)c4ccco4)CC3)[n+]2[O-])c1` gave B2AR arrestin 0%, FBPA coupling cs -1, Giardia killer inconclusive, uPA generation 0%, GALK inhibitor 0% and miR-21 reporter -2%.
For CCc1ccccc1NC(=O)Cc1c(C(=O)O)[nH]c2ccc(Cl)cc12 the results were miR-21 reporter 2%.
`CCN(CCC(=O)Nc1cc(OC)cc(OC)c1)Cc1ccccc1` gave B2AR arrestin 0%, FBPA coupling cs -40*, Giardia killer 2, uPA generation -1%, GALK inhibitor -3% and miR-21 reporter -1%.
For COc1cc(NC(=O)CCN2CCN(Cc3ccccc3)CC2)cc(OC)c1 the results were FBPA coupling cs -2, Giardia killer 4, uPA generation 0%, GALK inhibitor -1% and miR-21 reporter -11%.
Screening CCCN(CCC(=O)Nc1cc(OC)cc(OC)c1)CC1CC1 returned B2AR arrestin -1%, FBPA coupling cs -36*, Giardia killer -7, uPA generation -3%, GALK inhibitor 8% and miR-21 reporter -6%.
Screening Cc1ccc(-c2c3c(=O)n(C)c(=O)n(C)c3c3cnc4ccccc4n23)cc1 returned miR-21 reporter -1%.
COc1ccc(S(=O)(=O)NCCc2cn3ccsc3n2)cc1 was read as miR-21 reporter 0%.
For O=C1/C(=C/c2cccc([N+](=O)[O-])c2)Oc2cc(O)ccc21 the results were B2AR arrestin 0%, FBPA coupling cs 0, Giardia killer 1, uPA generation -11%, GALK inhibitor 1% and miR-21 reporter -5%.

Part of the list above in order of length of the SMILES, rising.
COc1ccc(C=Nc2cccnc2N)cc1 was read as B2AR arrestin 0%, FBPA coupling cs 0, Giardia killer 7, uPA generation -9%, GALK inhibitor 4% and miR-21 reporter -25%.
Screening O=[N+]([O-])c1cccnc1N1CCN(c2ccccc2F)CC1 returned B2AR arrestin 0%, FBPA coupling cs -3, Giardia killer -7, uPA generation -8%, GALK inhibitor 1% and miR-21 reporter -27%.
For CCc1ccccc1NC(=O)Cc1c(C(=O)O)[nH]c2ccc(Cl)cc12 the results were miR-21 reporter 2%.
